Values of other authors as cited in publication PMC5021161 (Environmental and Molecular Mutagenesis, 2016).
Like-named read-outs stand apart in the source and are kept apart here.

Tested on: TK6 cells
Details: 1% BF/PB S9, ref Buick et al., 2015, cited from earlier work

## C[C@@H]1C[C@H]2[C@@H]3CCC4=CC(=O)C=C[C@]4(C)[C@@]3(F)[C@@H](O)C[C@]2(C)[C@@]1(O)C(=O)CO [Dexamethasone]
0.63 mM
  % Relative Survival: 82.4%
1 mM
  % Relative Survival: 71.3%
